Reference: ChEMBL document CHEMBL6103567, “A novel pyridine-2-one AMPK inhibitor: Discovery, mechanism, and in vivo evaluation in a hypoxic pulmonary arterial hypertension rat model” (Eur J Med Chem, 2025)

The chains behind the UniProt entries cited, without tags or fusion partners. Where a name states a change or a piece, a line headed by the entry shows the natural chain unless it says otherwise.
UniProt Q13131: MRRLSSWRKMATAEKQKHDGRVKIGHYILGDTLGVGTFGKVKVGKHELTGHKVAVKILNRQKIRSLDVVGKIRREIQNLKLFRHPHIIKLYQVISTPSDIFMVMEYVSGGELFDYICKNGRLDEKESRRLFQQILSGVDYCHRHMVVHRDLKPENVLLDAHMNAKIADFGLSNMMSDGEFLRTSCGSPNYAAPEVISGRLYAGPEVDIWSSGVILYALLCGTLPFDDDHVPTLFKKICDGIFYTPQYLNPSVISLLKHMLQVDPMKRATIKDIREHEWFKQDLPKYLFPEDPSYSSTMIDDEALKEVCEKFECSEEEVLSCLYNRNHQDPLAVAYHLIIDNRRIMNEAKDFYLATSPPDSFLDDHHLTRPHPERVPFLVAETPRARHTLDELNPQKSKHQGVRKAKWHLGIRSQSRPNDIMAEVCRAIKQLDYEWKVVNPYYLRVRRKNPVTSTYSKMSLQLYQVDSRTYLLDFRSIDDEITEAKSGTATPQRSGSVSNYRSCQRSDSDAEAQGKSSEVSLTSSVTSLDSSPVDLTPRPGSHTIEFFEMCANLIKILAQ

Target: 5'-AMP-activated protein kinase catalytic subunit alpha-1 (Homo sapiens, UniProt Q13131)

c1cc(-c2cnn3cc(-c4ccc(OCCN5CCCCC5)cc4)cnc23)ccn1 [DORSOMORPHIN]
IC50: 6.33 µM
